# Assay results published in patent US12528776B2, “Composition and method for treating dermatological disorders using retinamides” (UNIVERSITY OF MARYLAND, Baltimore, priority 2019, dated 2026).
# System: keratin 10 (K10), keratin 19 (K19) and filaggrin expression in RHE cultures
# Experiment: RHE immunostaining for K10, K19 and filaggrin
# Conditions: 0.02% topical, 3 days, immunolabelling
SMILES,expression of K19 in viable cell layers of RHE,expression of K10 and filaggrin in sb and sg layers of RHE
CC1=C(/C=C/C(C)=C/C=C/C(C)=C/C(=O)Nc2ccc(F)cc2)C(C)(C)CCC1n1ccnc1 (stereo not shown) [VNLG-152],induced significant increase in the expression of K19,–
"CC1=C(/C=C/C(C)=C/C=C/C(C)=C/C(=O)O)C(C)(C)CCC1 [ATRA, all-trans-retinoic acid]",induced significant increase in the expression of K19,–
"CC1=C(/C=C/C(C)=C/C=C/C(C)=C\C(=O)O)C(C)(C)CCC1 [Compound 13-CRA, 13-cis-retinoic acid]","although higher to control, was comparatively lower than VNLG-152 or ATRA treated groups",slightly increased compared to VNLG-152 and ATRA treated tissues
